# PMC7431030 (Nature, 2020)
# Sequences of proteins named here, by UniProt entry; tags and fusion partners are left off.
# UniProt Q5BJF2, whole entry: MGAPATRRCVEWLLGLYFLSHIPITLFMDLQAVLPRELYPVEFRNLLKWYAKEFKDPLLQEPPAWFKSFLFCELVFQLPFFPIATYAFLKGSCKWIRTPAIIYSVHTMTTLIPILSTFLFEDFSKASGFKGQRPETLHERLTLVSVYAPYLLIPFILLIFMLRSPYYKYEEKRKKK
# Biological target: SigmaR2 (Homo sapiens, UniProt Q5BJF2)
# Assay: Sigma2 receptor radioligand binding/displacement assay
# Settings: Fig. 6h, mean±SD
structure (smiles),measurement,value
COc1cccc2c1CCCC2CCCN1CCN(C2CCCCC2)CC1 (stereo not shown) [PB28],pKi SigmaR2,8.6±0.1
